In one test the target is Dipeptidyl peptidase 4 (Homo sapiens, UniProt P27487).
The target of the next test is T1, Prolyl endopeptidase FAP (Homo sapiens, UniProt Q12884).
T1 sequence (Q12884 whole entry): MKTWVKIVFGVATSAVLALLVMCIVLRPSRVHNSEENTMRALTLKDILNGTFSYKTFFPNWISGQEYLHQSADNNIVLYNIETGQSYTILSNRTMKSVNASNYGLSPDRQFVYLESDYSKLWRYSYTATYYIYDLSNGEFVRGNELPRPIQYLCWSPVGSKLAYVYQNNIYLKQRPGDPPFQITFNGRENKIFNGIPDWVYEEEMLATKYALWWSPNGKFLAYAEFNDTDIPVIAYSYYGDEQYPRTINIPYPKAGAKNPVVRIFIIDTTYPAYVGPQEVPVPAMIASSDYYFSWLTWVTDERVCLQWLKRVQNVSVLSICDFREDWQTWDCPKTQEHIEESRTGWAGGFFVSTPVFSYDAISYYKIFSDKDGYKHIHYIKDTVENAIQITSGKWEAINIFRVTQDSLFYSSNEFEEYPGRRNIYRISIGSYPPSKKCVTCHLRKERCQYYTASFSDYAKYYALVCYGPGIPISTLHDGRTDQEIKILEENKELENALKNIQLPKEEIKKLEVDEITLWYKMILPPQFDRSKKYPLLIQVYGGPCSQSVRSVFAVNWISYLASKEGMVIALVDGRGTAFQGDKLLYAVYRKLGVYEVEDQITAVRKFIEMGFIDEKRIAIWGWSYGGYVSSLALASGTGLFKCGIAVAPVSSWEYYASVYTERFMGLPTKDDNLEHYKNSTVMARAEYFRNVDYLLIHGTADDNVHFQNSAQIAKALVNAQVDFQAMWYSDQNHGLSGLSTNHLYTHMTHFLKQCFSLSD
Nature of the test: biochemical.

The chains behind the UniProt entries cited, without tags or fusion partners.
UniProt P27487, whole entry: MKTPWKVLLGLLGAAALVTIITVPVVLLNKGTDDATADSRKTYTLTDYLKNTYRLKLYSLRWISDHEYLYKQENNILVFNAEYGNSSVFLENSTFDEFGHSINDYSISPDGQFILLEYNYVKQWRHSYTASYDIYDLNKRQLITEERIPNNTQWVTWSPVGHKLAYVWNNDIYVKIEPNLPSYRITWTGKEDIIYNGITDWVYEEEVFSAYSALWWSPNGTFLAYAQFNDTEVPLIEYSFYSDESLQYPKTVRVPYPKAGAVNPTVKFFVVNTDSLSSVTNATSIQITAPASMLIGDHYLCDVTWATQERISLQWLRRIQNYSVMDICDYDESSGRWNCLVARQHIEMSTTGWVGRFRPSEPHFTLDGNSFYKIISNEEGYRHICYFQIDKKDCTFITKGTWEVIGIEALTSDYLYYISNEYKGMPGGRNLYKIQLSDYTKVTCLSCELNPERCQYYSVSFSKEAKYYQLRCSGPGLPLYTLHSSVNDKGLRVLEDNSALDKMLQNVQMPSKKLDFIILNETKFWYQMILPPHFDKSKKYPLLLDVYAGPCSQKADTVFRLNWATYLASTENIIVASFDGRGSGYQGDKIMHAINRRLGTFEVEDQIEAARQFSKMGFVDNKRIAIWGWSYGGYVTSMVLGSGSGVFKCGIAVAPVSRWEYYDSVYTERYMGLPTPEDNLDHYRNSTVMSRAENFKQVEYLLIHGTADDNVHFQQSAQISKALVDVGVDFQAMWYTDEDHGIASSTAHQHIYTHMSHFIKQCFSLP

Each structure is given as a SMILES string.

Broadly, the IC50 is the concentration at which inhibition is half-maximal. The low end stands for greater potency, the high end for weaker potency.

On Dipeptidyl peptidase 4, `Cc1cc2ncc(C(=O)NCC(C)(C)NCC(=O)N3CCC[C@H]3C#N)cn2n1.Cl` [ANAGLIPTIN HYDROCHLORIDE] gave a 50% inhibitory concentration (IC50) of 0.0038 µM.
Turning to `Cc1cc2ncc(C(=O)NCC(C)(C)NCC(=O)N3CCC[C@H]3C#N)cn2n1` [ANAGLIPTIN], the IC50 against Prolyl endopeptidase FAP was determined as 72.7 µM.
